Test results as given in patent US20070020267A1 (published 2007).
Where a chain is given by its changes, count along the chain named.

The chains behind the UniProt entries cited, without tags or fusion partners. A line that says so, or that is headed by a name, gives the form on record, which may keep a tag or linker.
UniProt Q00731, other isoform, or with tags, fused parts or gaps limits assumed: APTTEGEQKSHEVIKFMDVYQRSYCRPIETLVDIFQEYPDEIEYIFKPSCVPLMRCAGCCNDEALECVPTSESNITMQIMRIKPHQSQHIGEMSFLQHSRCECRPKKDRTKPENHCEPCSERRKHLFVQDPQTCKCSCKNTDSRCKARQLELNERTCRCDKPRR
UniProt P15692, other isoform, or with tags, fused parts or gaps limits assumed: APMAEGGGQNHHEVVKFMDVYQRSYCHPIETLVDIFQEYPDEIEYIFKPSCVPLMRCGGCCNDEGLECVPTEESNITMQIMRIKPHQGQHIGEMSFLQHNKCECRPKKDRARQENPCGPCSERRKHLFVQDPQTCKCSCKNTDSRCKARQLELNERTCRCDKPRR

B1: G6-31 Fab (Fab, V domains shown)
VH: EVQLVESGGGLVQPGGSLRLSCAASGFTISDYWIHWVRQAPGKGLEWVAGITPAGGYTYYADSVKGRFTISADTSKNTAYLQMNSLRAEDTAVYYCARFVFFLPYAMDYWGQGTLVTVSS
VL: DIQMTQSPSSLSASVGDRVTITCRASQDVSTAVAWYQQKPGKAPKLLIYSASFLYSGVPSRFSGSGSGTDFTLTISSLQPEDFATYYCQQGYGNPFTFGQGTKVEIKR
B2: NNK-2 (Fab, V domains shown)
VH: EVQLVESGGGLVQPGGSLRLSCAASGFAIYDYDIHWVRQAPGKGLEWVALIAPYAGATAYADSVKGRFTISADTSKNTAYLQMNSLRAEDTAVYYCSRSSFAFWLAMDYWGQGTLVTVSS
VL: B1 VL with D28S, V29Y, S30A, T31Y, S50D, F53Y, G91A, G93S, N94S, F96D
notes: Soluble Fab, NNK variant of YADS2
B3: G6-23 Fab (Fab, V domains shown)
VH: B1 VH
VL: B1 VL with Q89K, G93A, F96W

How the values were obtained:
[1] = target: T1, murine VEGF (mVEGF) (mouse, UniProt Q00731-2 27-190, limits assumed); assay: cell-based or functional assay
[2] = target: T2, human VEGF (hVEGF) (human, UniProt P15692-4 27-191, limits assumed); assay: cell-based or functional assay
[3] = target: T1, murine VEGF (mVEGF); assay: SPR (BIAcore-3000), VEGF coupled to the chip, soluble Fab, 25 C
[4] = target: T2, human VEGF (hVEGF); assay: as above

| Binder | HuVEC growth inhibition, fold improvement over G6 [1] | HuVEC growth inhibition, fold improvement over G6 [2] | Kd [3] | Kd [4] |
| --- | --- | --- | --- | --- |
| B1 | ≥ 100 fold | ≥ 100 fold | – | – |
| B2 | – | – | 13 nM | 2 nM |
| B3 | ≥ 100 fold | ≥ 100 fold | – | – |
